The values that follow are results of earlier work, collected in article PMC5514212, “The interactions of metal cations and oxyanions with protein tyrosine phosphatase 1B” (Biometals, 2017).

The Ki is a dissociation constant, usually derived from enzyme kinetics or from competition with a known ligand.

In the data set the target is PTP1B. The settings on record: ref Huyer et al. [1997]; cited from earlier work.

Turning to `[O]=[V]([O-])([O-])[O-]` [vanadate, reference compound], the Ki is 380 nM.
